This assay deals with T1, recombinant human FLAP protein (Homo sapiens, UniProt P20292).
T1 construct: made in house; host or cells: Sf9 insect cells (100,000 x g membrane fraction)
Briefly: FLAP binding assay (Scintillation Proximity Assay, displacement of [125I]L-691,831). The following applies: recombinant human FLAP membranes, [125I]L-691,831 probe; read-out: FLAP SPA IC50. The method, then:
Cell pellets produced from sf9 insect cells expressing recombinant human FLAP protein are resuspended in buffer A [15 mM Tris-HCl (pH 7.5), 2 mM MgCl2, 0.3 mM EDTA, 1 mM PMSF]. The cells are lysed with a Dounce homogenizer and the material is centrifuged at 10,000×g for 10 minutes. The supernatant is then collected and centrifuged at 100,000×g for 60 minutes. To prepare membrane protein for an assay, an aliquot of the 100,000×g pellet is resuspended in 1 ml of buffer A, Dounce homogenized, and finally subjected to polytron mixing (30 seconds). Membrane protein (25 μl, 5 μg) is mixed with WGA SPA beads (Amersham) and stirred for 1 h.

The chains behind the UniProt entries cited, without tags or fusion partners. Where a name states a change or a piece, a line headed by the entry shows the natural chain unless it says otherwise.
UniProt P20292: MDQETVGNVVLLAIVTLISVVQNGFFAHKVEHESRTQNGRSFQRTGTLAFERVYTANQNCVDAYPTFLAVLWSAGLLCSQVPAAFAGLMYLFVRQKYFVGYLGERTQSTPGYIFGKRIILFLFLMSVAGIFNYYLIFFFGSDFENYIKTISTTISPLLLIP

As to `Nc1ncc(-c2ccc(C3(c4noc(N)n4)CCC3)cc2)cn1` [Example 15, 5-{4-[1-(5-Amino-1,2,4-oxadiazol-3-yl)-cyclobutyl]-phenyl}-pyrimidin-2-ylamine], the IC50 (usually the concentration that gives 50% inhibition) amounted to 20 nM.
Turning to `Nc1ncc(-c2ccc(C3(c4noc(-c5cnn(C6COC6)c5)n4)CCC3)cc2)cn1` [Example 89, 5-(4-{1-[5-(1-Oxetan-3-yl-1H-pyrazol-4-yl)-1,2,4-oxadiazol-3-yl]-cyclobutyl}-phenyl)-pyrimidin-2-ylamine], the IC50 worked out at 1.9 nM.
With `CC(C)(C)NC(=O)Cn1cc(-c2nc(C3(c4ccc(-c5cnc(N)nc5)cc4)CCC3)no2)cn1` [Example 142, 2-[4-(3-{1-[4-(2-Amino-pyrimidin-5-yl)-phenyl]-cyclobutyl}-1,2,4-oxadiazol-5-yl)-pyrazol-1-yl]-N-tert-butyl-acetamide] the figure was 1.1 nM; with `CC(C)(C)NC(=O)Cn1cc(-c2nc(C3(c4ccc(-c5cnc(N)nc5)cc4)CCC3)no2)cn1` [Example 207, 2-[4-(3-{1-[4-(2-Amino-pyrimidin-5-yl)-phenyl]-cyclobutyl}-[1,2,4]oxadiazol-5-yl)-pyrazol-1-yl]-N-tert-butyl-acetamide], 2.7 nM.

(Values after US8580829B2 (Boehringer Ingelheim International GmbH, priority 2010, dated 2013).)
